Our source for the GFP/RFP ratio change values is PubChem BioAssay AID651647 (Sanford-Burnham Center for Chemical Genomics, 2012).

The list shows a part of the results, in another mix than the full data. Activity calls are given as the source filed them.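 Rule for the calls: active = GFP/RFP ratio change of at least 30% with cell ATP level not reduced by more than half and red fluorescence within 50% of control; inactive = the rest, inconclusive results apart.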

This experiment concerns the target Matrix metalloproteinase-14 (Homo sapiens) (UniProt P50281). Put plainly: blockers of MT1-MMP proenzyme processing, primary screen, HT1080 RFP-PRO-GFP cells, GFP/RFP fluorescence (AID 651647). As to conditions: overnight, at 20 µM, stronger effect = higher value, percent of plate control window, DMSO zero. The procedure, abridged:
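Test system: HT1080 cells expressing an RFP-PRO-GFP fluorescent reporter construct / Compound dosing: single-point 20 µM compound, 1% DMSO / Schedule: cells overnight before dosing, compound overnight, 37 °C, 5% CO2 / Evaluation: GFP/RFP fluorescence ratio / Control set: DMSO and RFP-L50D-GFP cell wells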
Consider `Cc1cc(SC(NC=O)C(Cl)(Cl)Cl)ncn1` (centres undefined), for which the GFP/RFP ratio change was inactive: 4.72%.
The figure for `O=P(Nc1ccccn1)(c1cccc2ccccc12)c1cccc2ccccc12` is inactive: -2.59%; for `O=[N+]([O-])c1ccc(Nc2ccc(Oc3ccc([N+](=O)[O-])cc3[N+](=O)[O-])cc2)c([N+](=O)[O-])c1` it is inactive: 5.17%.
The figure for `C[As](=O)(O)c1cccc(C(=O)O)c1` is inactive: 1.56%; for `O=[As](O)(c1ccc(O)cc1)c1ccccc1O` it is inactive: 2.43%; for `O=[N+]([O-])c1ccc(-c2cc([N+](=O)[O-])c(O)c([N+](=O)[O-])c2)cc1` it is inactive: -0.704%.
The figure for `COc1cc(C(=O)NCC2(N3CCOCC3)CCCCC2)ccc1OCC(C)C` is inactive: -2.48%; for `Cc1ccc(OP(=O)(Nc2ccc([N+](=O)[O-])cn2)Oc2ccc(C)cc2)cc1` it is inactive: 0.89%.
As for `[N-]=[N+]=NC1CCCCC1NC(=O)c1cc([N+](=O)[O-])cc([N+](=O)[O-])c1` (centres undefined), the GFP/RFP ratio change was inactive: 2.67%.
The figure for `Cc1ccc2nc3c(c(C)c2c1)CC(C(Cl)Cl)S3` (centres undefined) is inactive: 6.73%.
On to `ClCCSc1nnc(-c2cccnc2)o1`, for which the GFP/RFP ratio change is inactive: 3.43%.
The figure for `COC(=O)C1(C)COP(=O)(N2CCCCCC2)OC1` (centres undefined) is inactive: -4.55%; for `CC(C)NC(=O)NP(=O)(Oc1ccccc1)Oc1ccccc1` it is inactive: 0.19%; for `O=C(OC1CN2CCC1CC2)c1cccc2[nH]cnc12` (centres undefined) it is inactive: -3.16%.
The figure for `CCN(CC)C(=S)SC(NC=O)C(Cl)(Cl)Cl` (centres undefined) is inactive: 1.74%; for `O=[N+]([O-])c1cc([N+](=O)[O-])c(-c2ccn[nH]2)s1` it is inactive: -1.65%.
The figure for `Cc1c2c(nc3ccccc13)SC(C(Cl)Cl)C2` (centres undefined) is inactive: -2.19%.
Take `O=C(OC1CN2CCC1CC2)C12CC3CC(CC(C3)C1)C2` (centres undefined): the GFP/RFP ratio change is inactive: 4.07%.
Consider `Cc1cc(=O)[nH]c(N[N+](=O)[O-])n1`, for which the GFP/RFP ratio change is inactive: 1.18%.
In the case of `O=P1(N(CCCl)CCCl)Nc2ccccc2N1` it was inactive: 1.28%; in that of `O=P1(N(CCCl)CCCl)OCCCN1CCCl` (centres undefined), inactive: 0.329%.
The figure for `COc1ccc2nc(NP(=O)(c3ccccc3)c3ccccc3)sc2c1` is inactive: 6.31%.
Turning to `COc1cc(I)ccc1[As](=O)(O)O`, the GFP/RFP ratio change was inactive: 6.95%.
For `O=[N+]([O-])c1cc(Oc2ccc([N+](=O)[O-])cc2C(F)(F)F)cc([N+](=O)[O-])c1`, the GFP/RFP ratio change is inactive: -0.514%.
In the case of `COc1ccc(N/C(=N/P(=O)(N2CCOCC2)N2CCOCC2)N2CCOCC2)cc1` it was inactive: -0.0325%; in that of `O=C(OC1CN2CCC1CC2)c1ccc(Cl)cc1` (centres undefined), inactive: 0.413%; in that of `O=[As](O)(O)c1cccnc1`, inactive: 1.85%.
With `COc1cc(C(=O)NCC2(N3CCOCC3)CCCCC2)cc(Cl)c1OC(C)C`, the GFP/RFP ratio change is inactive: -11.3%.
The figure for `CS(=O)(=O)c1ccc(Cl)c(NC(=O)COC(=O)C(O)(c2ccccc2)c2ccccc2)c1` is inactive: -0.373%; for `Cc1cccc(OCC(=O)OC2CN3CCC2CC3)c1` (centres undefined) it is inactive: 0.747%.
As to `O=[As](O)(c1cccc(O)c1)c1cccc(O)c1`, the GFP/RFP ratio change was inactive: -0.0148%.
In the case of `Nc1cccc2c([As](=O)(O)O)cccc12` it was inactive: -33.2%.
As to `Cc1ccc(NCCc2c([N+](=O)[O-])cc([N+](=O)[O-])cc2[N+](=O)[O-])cc1`, the GFP/RFP ratio change was active: 34.9%.
In the case of `CCCOP(=S)(Nc1nc(N)cc(=O)[nH]1)OCCC`, the GFP/RFP ratio change was inactive: 1.95%.
On to `COc1cc(C2NCCC3(OCCO3)C2(C)C)cc(OC)c1OC` (centres undefined), for which the GFP/RFP ratio change is inactive: -0.342%.
Turning to `CCOP(=O)(Nc1cccc2ccccc12)OCC`, the GFP/RFP ratio change is inactive: 0.547%.
The figure for `CCOP1(=S)c2c(C)nn(CCC#N)c2N=C(c2ccccc2F)N1C` (centres undefined) is inactive: -1.76%; for `O=P(Nc1nccs1)(Oc1ccccc1)Oc1ccccc1` it is inactive: 3.72%; for `O=P(Nc1nccs1)(c1ccccc1)c1nc2ccccc2s1` (centres undefined) it is inactive: -0.0922%.
Consider `CS(=O)(=O)c1cc([N+](=O)[O-])c2no[n+]([O-])c2c1`, for which the GFP/RFP ratio change was inactive: -6.51%.
In the case of `O=C(O)COc1ccc([As](=O)(O)O)cc1[N+](=O)[O-]` it was inactive: 10.6%; in that of `Nc1ccccc1[As](=O)(O)c1ccccc1`, inactive: 0.822%; in that of `NC(=O)Nc1ccc([As](=O)(O)O)cc1`, inactive: -1.25%.
In the case of `N#CCCN(C(=O)COC(=O)C(O)(c1ccccc1)c1ccccc1)c1ccc(F)cc1` it was inactive: 1.33%; in that of `CN(C(=O)Cc1ccccc1)[C@@H]1CC[C@]2(CCCO2)C[C@H]1N1CCCC1`, inactive: -3.74%.
In the case of `CCOP1(=S)c2c(C)nn(CCC#N)c2N=C(c2ccc(F)cc2)N1C` (centres undefined) it was inactive: 2.84%; in that of `O=[N+]([O-])c1ccc2c(c1)nnn2O`, inactive: -0.101%.
For `CN(C)C(=O)c1cc([N+](=O)[O-])cc2c1-c1c(cc([N+](=O)[O-])cc1[N+](=O)[O-])C2=O`, the GFP/RFP ratio change is inactive: 7.65%.
In the case of `CN(C(=O)Cc1ccc(Cl)c(Cl)c1)[C@H]1CC[C@@]2(CCCO2)C[C@@H]1N1CCCC1` it was inactive: 4.38%; in that of `Cc1nn(-c2ccccc2)c2c1P(=O)(N1CCOCC1)N(C)C(c1ccccc1)=N2` (centres undefined), inactive: 2.78%; in that of `Cc1ccc(C(=O)OC2CN3CCC2CC3)cc1` (centres undefined), inactive: -0.418%.
Take `CC1CCC(C(C)C)C(OP(=O)(Nc2ccccn2)c2ccccc2)C1` (centres undefined): the GFP/RFP ratio change is inactive: -12.5%.
The figure for `CN(C)C1(CNC(=O)c2ccc(S(C)(=O)=O)cc2)CCCCC1` is inactive: 1.45%.
Consider `O=C(/C=C/c1ccccc1)OC1CN2CCC1CC2` (centres undefined), for which the GFP/RFP ratio change is inactive: -0.0734%.
The figure for `CCCC1OP(=O)(Nc2ccccc2)OCC1CC` (centres undefined) is inactive: -4.8%; for `Cc1ccc(S(=O)(=O)N(CCCN)CCCc2c(C)nc(N)[nH]c2=O)cc1` it is inactive: 7.93%.
In the case of `O=P1(Nc2ncccn2)COc2ccccc2OC1`, the GFP/RFP ratio change is inactive: 2.73%.
As to `Nc1cccc([As](=O)(O)c2ccccc2)c1`, the GFP/RFP ratio change was inactive: 2.09%.
In the case of `O=[As](O)(c1cccs1)c1cccs1` it was inactive: -1.32%; in that of `Cc1ccc(OCC(=O)OC2CN3CCC2CC3)cc1` (centres undefined), inactive: 3.02%; in that of `NS(=O)(=O)c1cccc(NC(=O)COC(=O)C(O)(c2ccccc2)c2ccccc2)c1`, inactive: -2.16%.
The figure for `O=P1(Nc2ccc(Br)cn2)COc2ccccc2OC1` is inactive: 0.719%; for `CCC1=CC2Cc3nc4ccc(Cl)cc4c(N)c3C(C1)C2` (centres undefined) it is inactive: 1.95%; for `O=P1(Nc2ccccn2)COc2ccccc2OC1` it is inactive: -5.51%.
Regarding `CCOP(=O)(NC(=NC(C)c1ccccc1)NC(C)c1ccccc1)OCC` (centres undefined), the GFP/RFP ratio change is inactive: 0.28%.
The figure for `CCOP(=O)(Nc1ccc(C)cn1)OCC` is inactive: 2.53%; for `CN(CCCl)Cc1cc(Cl)c(NC2=NCCN2)c(Cl)c1` it is inactive: -2.62%.
`Clc1n[nH]nc1-c1nn[nH][15n]1`: the GFP/RFP ratio change was inactive: 2.74%.
In the case of `O=P1(N(CCCl)CCCl)NCCC(C(F)(F)F)O1` (centres undefined) it was inactive: 1.65%.
For the compound `CC(C)(C)C(=O)NC(Sc1ncccn1)C(Cl)(Cl)Cl` (centres undefined), the GFP/RFP ratio change was inactive: 4.85%.
In the case of `COc1ccccc1CNC(=O)COC(=O)C(O)(c1ccccc1)c1ccccc1` it was inactive: -2.84%.
The figure for `CN(C(=O)Cc1ccc(Cl)c(Cl)c1)[C@@H]1CCCC[C@H]1N1CCCC1` is inactive: -0.763%; for `CC(C)/C=N\N=C(\N)N[N+](=O)[O-]` it is inactive: -3.47%; for `CC1(CBr)Cn2c(nc3ccccc3c2=O)S1` (centres undefined) it is inactive: -3.24%.
